# Assay results published in PubChem BioAssay AID602247 (The Scripps Research Institute Molecular Screening Center, 2012).
# The list shows a part of the results, in another mix than the full data. Some results for these compounds are left out of this collection, so the calls shown say nothing about other tests. Activity calls are given as the source filed them.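 Rule for the calls: active = activation above the run cutoff, the mean activation of all test compounds plus 3 SD (cut at about 40% in these data); inactive = the rest.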
# Experiment: nonselective calcium activators in parental CHO-K1 cells, primary screen, counter-screen for M1 PAM project, cell-based, Fluo-8 calcium fluorescence, full deck, 1536-well (AID 602247);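 note: peak over basal fluorescence ratio in a 140 s read after ATP addition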
# Conditions: parental CHO-K1, ATP EC20, Fluo-8 calcium fluorescence; at 3 µM; active compounds read high; 0% at ATP EC20, 100% at ATP max
row,Compound,activation
1,CCN1CCCC(OC(=O)C2(O)c3ccccc3C=Cc3ccccc32)C1 (stereo unspecified),inactive: 13.4%
2,Cc1cc(C(=O)NCC2(N3CCCCC3)CCCCC2)ccc1[N+](=O)[O-],inactive: 19%
3,O=C(NCC1(N2CCCCC2)CCCCC1)c1cccc(Br)c1,inactive: 19%
4,COc1ccc(C(=O)NCC2(N(C)C)CCCCC2)cc1,inactive: -7.21%
5,C=CCN1CCN(CCOC(=O)C(O)(c2ccccc2)c2ccccc2)CC1,inactive: 11.3%
6,O=C(NCC1(N2CCCCC2)CCCCC1)c1cc(F)c(F)cc1Cl,inactive: -4.08%
7,Cc1ccccc1C(=O)NCC1(N2CCCCC2)CCCCC1,inactive: 19.4%
8,CN(C)c1ccc(C(=O)NCC2(N(C)C)CCCCC2)cc1,inactive: 17.7%
9,CN(C)C1CCCC1OC(=O)C(O)(c1ccccc1)c1ccccc1 (stereo unspecified),inactive: -13.2%
10,Cc1ccc(C(=O)NCC2(N3CCCCC3)CCCCC2)cc1,inactive: 6.05%
11,CC(C)N1C(=O)CC2(CCN(CCOC(=O)C(O)(c3ccccc3)c3ccccc3)CC2)C1=O,inactive: 20.1%
12,CCN(CC)CC(C)C(C)OC(=O)C(O)(c1ccccc1)c1ccccc1 (stereo unspecified),inactive: -22.4%
13,COc1cc(SC)ccc1C(=O)NCC1(N(C)C)CCCCC1,inactive: 0.79%
14,CN1[C@@H]2CC[C@H]1CC(OC(=O)C(O)(c1ccccc1)c1ccccc1)C2 (stereo partly specified),inactive: 6.3%
15,O=C(NCC1(N2CCCCC2)CCCCC1)c1cc([N+](=O)[O-])ccc1Cl,inactive: 5.63%
16,CN(C)c1cccc(C(=O)NCC2(N(C)C)CCCCC2)c1,inactive: 9.47%
17,CC(C)Oc1ccc(C(=O)NCC2(N(C)C)CCCCC2)cc1,inactive: -5.44%
18,O=C(OCCN1CCCC1)C(O)(c1ccccc1)c1ccccc1,inactive: 14%
19,COc1ccc(Br)c(C(=O)NCC2(N3CCCCC3)CCCCC2)c1,inactive: 2.39%
20,C=C(C)C#CC(O)(C(=O)OC1CCN(C)CC1)c1ccccc1 (stereo unspecified),inactive: 18.8%
21,O=C(OC1CN2CCC1CC2)C(CO)(c1ccccc1)c1ccccc1 (stereo unspecified),inactive: -0.41%
22,O=C(NCC1(N2CCCCC2)CCCCC1)c1cccc(Cl)c1,inactive: 15.9%
23,COc1cccc(C(=O)NCC2(N3CCCCC3)CCCCC2)c1,inactive: 13.3%
24,COc1ccc(Cl)cc1C(=O)NCC1(N(C)C)CCCCC1,inactive: 3.76%
25,COc1cc(C(=O)NCC2(N(C)C)CCCCC2)c([N+](=O)[O-])cc1OC,inactive: 5.19%
26,CN(C)C1(CNC(=O)c2ccc(Br)cc2)CCCCC1,inactive: 4.82%
